Only a part is listed here, and it is no random draw. The source made the active and inactive calls. Rule as the data show it: active = activation fold above about 2; inactive = the rest.

Chains of the proteins cited; added tags and fusions are not shown. Lines headed by an entry give the natural chain unless they say otherwise; changes in a name come on top.
UniProt P05187: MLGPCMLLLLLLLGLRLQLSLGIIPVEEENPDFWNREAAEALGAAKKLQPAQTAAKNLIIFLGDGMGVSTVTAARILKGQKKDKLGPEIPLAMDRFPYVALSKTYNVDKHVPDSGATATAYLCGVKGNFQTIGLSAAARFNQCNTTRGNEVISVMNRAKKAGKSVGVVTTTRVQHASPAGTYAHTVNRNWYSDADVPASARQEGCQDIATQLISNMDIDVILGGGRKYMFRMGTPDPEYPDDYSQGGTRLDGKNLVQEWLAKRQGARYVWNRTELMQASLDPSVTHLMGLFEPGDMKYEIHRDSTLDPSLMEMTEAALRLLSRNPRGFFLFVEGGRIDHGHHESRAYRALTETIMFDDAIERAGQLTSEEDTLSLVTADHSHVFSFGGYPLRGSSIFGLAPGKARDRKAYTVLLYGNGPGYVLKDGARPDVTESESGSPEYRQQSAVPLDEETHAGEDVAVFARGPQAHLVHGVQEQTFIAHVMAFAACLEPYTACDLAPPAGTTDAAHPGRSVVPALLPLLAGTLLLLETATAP

The target of this assay is Alkaline phosphatase, placental type (Homo sapiens) (UniProt P05187). As to the kind of experiment: PLAP enzyme activators, biochemical, luminescence, HTS (AID 696). As to conditions: purified PLAP enzyme, luminescent substrate read-out; at 20 µM; hits give high values.
Turning to `Cc1cccc(OCC(=O)OC2CN3CCC2CC3)c1` (centres undefined), the activation fold was inactive: 0.9.
`CCOP1(=S)c2c(C)nn(CCC#N)c2N=C(c2ccccc2F)N1C` (centres undefined): the activation fold is inactive: 1.1.
Turning to `O=P(Nc1nccs1)(c1ccccc1)c1nc2ccccc2s1` (centres undefined), the activation fold was inactive: 1.4.
As to `O=[N+]([O-])c1ccc2c(c1)nnn2O`, the activation fold is inactive: 0.9.
For the molecule `CCOP1(=S)c2c(C)nn(CCC#N)c2N=C(c2ccc(F)cc2)N1C` (centres undefined), the activation fold was inactive: 1.3.
As to `Cc1nn(-c2ccccc2)c2c1P(=O)(N1CCOCC1)N(C)C(c1ccccc1)=N2` (centres undefined), the activation fold is inactive: 1.3.
On to `Cc1ccc(OCC(=O)OC2CN3CCC2CC3)cc1` (centres undefined), for which the activation fold is inactive: 1.
As for `O=P1(Nc2ccc(Br)cn2)COc2ccccc2OC1`, the figure is inactive: 1.1; as for `O=P1(Nc2ncccn2)COc2ccccc2OC1`, inactive: 1.3.
Regarding `Clc1n[nH]nc1-c1nn[nH][15n]1`, the activation fold is inactive: 0.9.
The result for `O=P1(Nc2ccccn2)COc2ccccc2OC1` reads inactive: 1.1; that for `O=C(COc1ccccc1)OC1CN2CCC1CC2` (centres undefined), inactive: 1; that for `COP1(=S)c2c(C)nn(CCC#N)c2N=C(c2ccc(F)cc2)N1C` (centres undefined), inactive: 1.4.
On to `CCN(CC)C(=S)SC(NC=O)C(Cl)(Cl)Cl` (centres undefined), for which the activation fold was inactive: 0.9.
As for `O=C(OC1CN2CCC1CC2)C12CC3CC(CC(C3)C1)C2` (centres undefined), the figure is inactive: 1.4; as for `CC(C)CC(=O)NC(Sc1ccc(Cl)cc1)C(Cl)(Cl)Cl` (centres undefined), inactive: 0.7; as for `Oc1ccccc1CNc1ccccn1`, inactive: 1.
The result for `Cc1c2non([O-])c-2c(C)[n+](=O)[n+]1[O-]` reads inactive: 0.9.
For the molecule `CCOP(=O)(Nc1ccccc1)OCC`, the activation fold was inactive: 1.1.
Regarding `O=[N+]([O-])c1cccc2n[nH]nc12`, the activation fold was inactive: 0.9.
On to `CCc1nc2c(n1)c1c(non1O)c1c2no[n+]1[O-]`, for which the activation fold was inactive: 1.
The result for `CC1CCN(C(=O)Oc2c(Cl)cc(Cl)c3cccnc23)CC1` reads inactive: 1.4.
As for `c1nnnn1CCn1cnnn1`, the activation fold was inactive: 1.
For the molecule `O=P(Nc1nccs1)(c1ccccc1)c1ccccc1`, the activation fold is inactive: 1.2.
For the molecule `O=C(OC1CN2CCC1CC2)c1cccc(Cl)c1` (centres undefined), the activation fold is inactive: 1.1.
Regarding `CCOC(=O)NC(Sc1ccccc1)C(Cl)(Cl)Cl` (centres undefined), the activation fold was inactive: 1.
Take `COC(=O)c1cc2c(s1)N=C(c1ccccc1)N(C)P2(=O)N1CCOCC1` (centres undefined): the activation fold was inactive: 1.2.
For the molecule `CCC(=O)N1C2C3N(C(=O)CC)C1C1N(C(=O)CC)C(C(N1C(=O)CC)N3C(=O)CC)N2C(=O)CC`, the activation fold is inactive: 0.7.
On to `O=P1(Nc2nc3ccc(Cl)cc3s2)COc2ccccc2O1` (centres undefined), for which the activation fold was inactive: 1.

For the origin of these results see PubChem BioAssay AID696 (Sanford-Burnham Center for Chemical Genomics, 2007).
